Biological target: T1, C-C chemokine receptor type 4 (Homo sapiens, UniProt P51679)
T1 sequence (P51679 whole entry): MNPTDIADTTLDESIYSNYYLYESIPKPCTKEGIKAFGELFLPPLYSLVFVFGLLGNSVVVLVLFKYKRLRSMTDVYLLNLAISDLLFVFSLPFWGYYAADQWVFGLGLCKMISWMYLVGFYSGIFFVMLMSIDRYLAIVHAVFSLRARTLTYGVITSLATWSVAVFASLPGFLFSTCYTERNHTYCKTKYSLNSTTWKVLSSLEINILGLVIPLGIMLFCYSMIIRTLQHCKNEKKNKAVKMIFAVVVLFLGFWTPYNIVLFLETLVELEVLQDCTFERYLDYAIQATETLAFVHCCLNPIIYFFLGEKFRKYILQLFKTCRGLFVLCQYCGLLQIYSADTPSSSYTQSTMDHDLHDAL
Assay: Antagonist activity at human CCR4 expressed in rat chem-5 cells assessed as inhibition of CCL22-induced calcium flux measured at 2.5 secs time interval for 45 secs by fluorescence assay
Assay type: functional, cell-based
How it was run: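 Calcium flux functional readout of CCR4 antagonism, run without serum; IC50 reported.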

Cc1nn([C@H](C)c2ccc(Cl)cc2Cl)c2nc(N3CC[C@H](N4CCCCCC4)[C@H](C)C3)cnc12
IC50: 0.023 µM

Cc1nn([C@H](C)c2ccc(Cl)cc2Cl)c2nc(N3CC[C@H](N4CCC4)[C@H](C)C3)cnc12
IC50: 0.058 µM

Cc1nn([C@H](C)c2ccc(Cl)cc2Cl)c2nc(N3CC[C@H](N4CCC[C@H]4CO)[C@H](C)C3)cnc12
IC50: 0.032 µM

— ChEMBL document CHEMBL4364292, “Discovery of a Potent and Selective CCR4 Antagonist That Inhibits Treg Trafficking into the Tumor Microenvironment” (J Med Chem, 2019)
